Laboratory results taken from patent US11613515B2, “Neuro-attenuating ketamine and norketamine compounds, derivatives thereof, and methods” (Amorsa Therapeutics, Inc., priority 2014, dated 2023).

Test: Stability towards hydrogen exchange (NMR)
Conditions: neutral and acidic pH; deuterated chloroform treated with water, hydrochloric or acetic acid

With [2H]C1([2H])CCCC(N)(c2ccccc2Cl)C1=O (stereo not shown) [compound 11] the “stability towards hydrogen exchange” value was “stable towards hydrogen exchange at neutral and acidic pH”.
